Reference: patent US10849907B2, “Imidazopyridine derivatives and the use thereof as medicament” (Boehringer Ingelheim International GmbH, priority 2017, dated 2020)

By UniProt entry, the sequences of proteins in these tests, tags left out. Residues count along the entry.
UniProt Q13224, 27-1484 limits assumed: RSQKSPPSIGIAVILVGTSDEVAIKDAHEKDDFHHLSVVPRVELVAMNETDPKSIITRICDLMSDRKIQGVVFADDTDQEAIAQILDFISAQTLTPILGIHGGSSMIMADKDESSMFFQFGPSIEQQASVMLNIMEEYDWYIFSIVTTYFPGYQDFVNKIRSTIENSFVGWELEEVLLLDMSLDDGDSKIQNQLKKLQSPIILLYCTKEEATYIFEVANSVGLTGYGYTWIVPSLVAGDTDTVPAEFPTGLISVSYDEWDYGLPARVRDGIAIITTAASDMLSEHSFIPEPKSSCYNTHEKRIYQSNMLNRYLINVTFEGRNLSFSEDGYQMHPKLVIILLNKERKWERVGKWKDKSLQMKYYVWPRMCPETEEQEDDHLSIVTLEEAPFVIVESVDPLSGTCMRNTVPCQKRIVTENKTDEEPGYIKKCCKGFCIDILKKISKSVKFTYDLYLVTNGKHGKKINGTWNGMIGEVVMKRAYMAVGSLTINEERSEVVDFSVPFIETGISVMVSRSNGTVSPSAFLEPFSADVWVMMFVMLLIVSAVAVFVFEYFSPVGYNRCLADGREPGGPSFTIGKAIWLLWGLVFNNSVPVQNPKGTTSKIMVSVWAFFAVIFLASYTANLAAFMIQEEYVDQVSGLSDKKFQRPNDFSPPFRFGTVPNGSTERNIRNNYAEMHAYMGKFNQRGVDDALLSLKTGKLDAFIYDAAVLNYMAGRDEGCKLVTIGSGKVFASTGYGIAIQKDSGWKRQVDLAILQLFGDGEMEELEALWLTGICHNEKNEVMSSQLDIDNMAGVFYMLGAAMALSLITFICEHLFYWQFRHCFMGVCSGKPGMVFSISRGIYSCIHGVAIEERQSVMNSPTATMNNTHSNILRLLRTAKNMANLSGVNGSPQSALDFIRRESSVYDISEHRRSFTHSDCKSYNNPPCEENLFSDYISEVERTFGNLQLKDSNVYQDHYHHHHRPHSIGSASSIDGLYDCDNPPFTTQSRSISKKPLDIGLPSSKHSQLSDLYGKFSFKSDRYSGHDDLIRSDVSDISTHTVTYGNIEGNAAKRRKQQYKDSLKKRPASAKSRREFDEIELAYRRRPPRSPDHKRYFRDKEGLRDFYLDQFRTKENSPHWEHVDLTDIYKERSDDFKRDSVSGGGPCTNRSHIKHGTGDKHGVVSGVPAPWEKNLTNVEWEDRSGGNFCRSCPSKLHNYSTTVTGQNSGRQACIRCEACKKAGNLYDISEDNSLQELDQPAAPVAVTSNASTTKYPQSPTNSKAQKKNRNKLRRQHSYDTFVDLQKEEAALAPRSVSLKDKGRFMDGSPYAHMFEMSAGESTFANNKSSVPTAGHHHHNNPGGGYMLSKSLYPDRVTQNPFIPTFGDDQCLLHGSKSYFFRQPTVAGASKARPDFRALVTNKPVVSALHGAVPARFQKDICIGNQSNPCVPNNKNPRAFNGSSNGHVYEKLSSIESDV

Target: NMDA NR1/NR2B receptor (Homo sapiens, UniProt Q13224)
Assay: In vitro NMDA NR1/NR2b cell assay (FLIPR, intracellular calcium induced by glycine/glutamate)
Format: cell-based

O=C(Cc1cc(Cl)cc(Cl)c1)N1CCC[C@H](c2nc3cc(Cl)ccc3[nH]2)C1
negative allosteric modulation of the NR2B ion channel (in words): rather poor negative allosteric modulation of the NR2B ion channel or no activity at all

O=C(Cc1cc(Cl)cc(Cl)c1)N1CCOC(c2nc3nc(Cl)ccc3[nH]2)C1 (stereo not shown)
negative allosteric modulation of the NR2B ion channel (in words): rather poor negative allosteric modulation of the NR2B ion channel or no activity at all

O=C(NCc1cc(Cl)cc(Cl)c1)N1CCCC(c2nc3nc(Cl)ccc3[nH]2)C1 (stereo not shown)
negative allosteric modulation of the NR2B ion channel (in words): rather poor negative allosteric modulation of the NR2B ion channel or no activity at all

O=C(Cc1cc(Cl)cc(Cl)c1)N1CCCC(c2nc3cc(Cl)c(Cl)cc3[nH]2)C1 (stereo not shown)
negative allosteric modulation of the NR2B ion channel (in words): rather poor negative allosteric modulation of the NR2B ion channel or no activity at all

O=C(Cc1cc(Cl)cc(Cl)c1)N1CCCC(c2nc3cc(Cl)ccc3[nH]2)C1 (stereo not shown)
negative allosteric modulation of the NR2B ion channel (in words): rather poor negative allosteric modulation of the NR2B ion channel or no activity at all

O=C(Cc1cc(Cl)cc(Cl)c1)N1CCC[C@@H](c2nc3cc(Cl)ccc3[nH]2)C1
negative allosteric modulation of the NR2B ion channel (in words): rather poor negative allosteric modulation of the NR2B ion channel or no activity at all

O=C(Cc1cc(Cl)cc(Cl)c1)N1CCCC(c2nc3cc(F)ccc3[nH]2)C1 (stereo not shown)
negative allosteric modulation of the NR2B ion channel (in words): rather poor negative allosteric modulation of the NR2B ion channel or no activity at all
